Earlier results, collected in patent US9980972B2, “Rho kinase inhibitors for use in treating familial amyotrophic lateral sclerosis” (GEORG-AUGUST-UNIVERSITÄT GÖTTINGEN STIFTUNG ÖFFENTLICHEN …, priority 2012, dated 2018).

Details: cited from earlier work

Nc1nc2ccc(OC(F)(F)F)cc2s1 [Riluzole]
liver damage, share of people taking the drug: ~10%
